Assay [1] concerns the target TSHR IV (K244A, E247A, K250A, R255A) (human) (UniProt P16473). Description: radioligand binding; CHO cell monolayers stably expressing TSHR in 24-well plates; ~30,000 cpm 125I-TSH with increasing unlabeled bTSH, 4 h at room temperature, Hanks' buffer with 250 mM sucrose in place of NaCl, 0.25% BSA; Kd by Scatchard analysis, excluding the low affinity non-specific site; four experiments.

Assay [2] deals with TSHR V (K244A, E247A, K250A, E251A, R255A) (human) (UniProt P16473). The assay is described as above.
In assay [3] the target is wild-type human TSH receptor (hTSHR) (human) (UniProt P16473). Described as above.
The target in assay [4] is TSHR IV (K244A, E247A, K250A, R255A) (human) (UniProt P16473).
The target of assay [5] is TSHR V (K244A, E247A, K250A, E251A, R255A) (human) (UniProt P16473).
For assay [6], the target named is wild-type human TSH receptor (hTSHR) (human) (UniProt P16473).

Take “125I-TSH (from UniProt P01217 25-120; P01223 21-132) (ligand)”: the 125I-TSH bound (% of total cpm) (% of total cpm) in assay [1] was 16.4; in assay [2], 11.
In assay [3], “125I-TSH (from UniProt P01217 25-120; P01223 21-132) (ligand; other documents disagree on this pair)” gave a 125I-TSH bound (% of total cpm) (% of total cpm) of 29.1.
With “bovine (b) TSH (from UniProt P01217 25-120; P01223 21-132) (ligand)”, the TSH EC50 for intracellular cAMP generation, CHO cells stably expressing the TSHR, 1 h (the paper reads the shift as partial uncoupling of binding and signalling, not lower affinity) in assay [4] turned out to be 0.67 mU/ml; in assay [5] it was 3.2 mU/ml. Besides, in assay [6], the TSH EC50 for intracellular cAMP generation, CHO cells stably expressing the TSHR, 1 h amounted to 0.24 mU/ml.
